{"sequences": {"note": "Protein sequences, listed by entry. Tags and fused reporters are not part of them. Lines headed by an entry give the natural chain unless they say otherwise; changes in a name come on top.", "UniProt P35372, whole entry": "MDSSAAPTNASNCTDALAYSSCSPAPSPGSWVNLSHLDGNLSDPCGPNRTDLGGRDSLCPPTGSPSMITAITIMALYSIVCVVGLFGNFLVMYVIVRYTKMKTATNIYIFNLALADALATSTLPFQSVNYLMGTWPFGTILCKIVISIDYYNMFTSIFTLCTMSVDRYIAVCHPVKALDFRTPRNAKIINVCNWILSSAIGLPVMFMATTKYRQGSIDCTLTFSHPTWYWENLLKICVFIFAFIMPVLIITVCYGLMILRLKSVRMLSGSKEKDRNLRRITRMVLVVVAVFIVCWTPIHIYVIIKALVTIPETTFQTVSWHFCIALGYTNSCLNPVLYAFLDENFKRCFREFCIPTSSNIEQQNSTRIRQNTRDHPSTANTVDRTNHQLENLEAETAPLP", "UniProt P35370": "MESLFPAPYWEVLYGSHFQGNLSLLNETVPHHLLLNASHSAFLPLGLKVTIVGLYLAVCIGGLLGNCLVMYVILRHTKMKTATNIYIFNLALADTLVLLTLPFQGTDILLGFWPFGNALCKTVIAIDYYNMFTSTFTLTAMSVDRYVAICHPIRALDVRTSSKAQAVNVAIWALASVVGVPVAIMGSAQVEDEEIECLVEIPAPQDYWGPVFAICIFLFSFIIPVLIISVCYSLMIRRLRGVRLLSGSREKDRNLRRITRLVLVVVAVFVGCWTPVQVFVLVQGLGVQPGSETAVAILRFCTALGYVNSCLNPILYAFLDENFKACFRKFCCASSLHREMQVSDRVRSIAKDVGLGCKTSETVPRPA"}, "source": "patent US7097988B1", "about": "(ADVANCED RESEARCH AND TECHNOLOGY INSTITUTE, dated 2006)", "key": {"[1]": {"biological_target": "T1, cloned human μ opioid receptor (Homo sapiens, UniProt P35372)", "T1 construct": "the cDNA containing the open reading frame of the receptor was cloned downstream of the human cytomegalovirus promoter in the mammalian expression vector pcDNA3; expressed in transfected cells; host or cells: COS-7 (transient)", "conditions": "read-out: Binding potencies (Ki-nM), human μ receptor, [3H]DAMGO"}, "[2]": {"biological_target": "T2, novel member of the opioid receptor gene family (SEQ ID NO: 17) (Rattus norvegicus, UniProt P35370)", "T2 construct": "mRNA of this clone was synthesized by in vitro transcription and coinjected into Xenopus oocytes; expressed in transfected cells; host or cells: Xenopus oocytes (mRNA injection)", "type": "cell-based"}}, "data": [{"smiles": "CCC12CCN(CC3(O)CC3)C(Cc3ccc(O)cc31)C2(C)C", "note": "(racemic) [(±)bremazocine]", "values": [{"measurement": "Ki", "setting": "[1]", "value": 1.4, "unit": "nM"}]}, {"smiles": "CN1CC[C@]23c4c5ccc(O)c4O[C@H]2[C@@H](O)C=C[C@H]3[C@H]1C5", "note": "[Morphine]", "values": [{"measurement": "induction of potassium conductance (in words)", "setting": "[2]", "value": "no potassium conductance was induced"}]}]}
